In paper PMC5020621:

Experiments:
[1] = biological target: Complement factor H (human) (UniProt P08603); experiment: SPR; CFH immobilised; uromodulin in HBS-EP solution buffer, each sample sonicated 5 min before injection to depolymerize; regeneration with 30 ul of 10 mM NaOH
[2] = biological target: Complement factor H (human) (UniProt P08603); experiment: SPR; Biacore 3000; CFH immobilised on CM5 chip (~600 RU) by amine coupling; running buffer HBS-EP pH 7.4; uromodulin diluted in ultrapure water, 1.25-20 uM, 30 ul/min; steady-state affinity; no regeneration

Uromodulin (from UniProt P07911 25-614) (natural protein)
Kd [1]: 0.133 nM | Kd [2]: 4070 nM
